How the values were obtained:
[1] = molecular target: Epidermal growth factor receptor (Homo sapiens, UniProt P00533)
[2] = molecular target: ALK tyrosine kinase receptor (Homo sapiens, UniProt Q9UM73); assay: 2.5 uL-4x Test Compound or 100 nL 100x plus 2.4 uL kinase buffer; 2. 5 uL-2x Peptide/Kinase Mixture; 3. 2.5 uL-4xATP Solution; 4. 30-second plate shake; 5. 60-minute Kinase Reaction incubation at room temperature; 6. 5 uL-Development Reagent Solution; 7. 30-second plate shake; 8. 60-minute Development Reaction incubation at room temperature; 9. […] After the 1 hour Kinase Reaction incubation, 5 uL of a 1:256 dilution of Development Reagent B is added.

The chains behind the UniProt entries cited, without tags or fusion partners. Where a name states a change or a piece, a line headed by the entry shows the natural chain unless it says otherwise.
UniProt P00533, whole entry: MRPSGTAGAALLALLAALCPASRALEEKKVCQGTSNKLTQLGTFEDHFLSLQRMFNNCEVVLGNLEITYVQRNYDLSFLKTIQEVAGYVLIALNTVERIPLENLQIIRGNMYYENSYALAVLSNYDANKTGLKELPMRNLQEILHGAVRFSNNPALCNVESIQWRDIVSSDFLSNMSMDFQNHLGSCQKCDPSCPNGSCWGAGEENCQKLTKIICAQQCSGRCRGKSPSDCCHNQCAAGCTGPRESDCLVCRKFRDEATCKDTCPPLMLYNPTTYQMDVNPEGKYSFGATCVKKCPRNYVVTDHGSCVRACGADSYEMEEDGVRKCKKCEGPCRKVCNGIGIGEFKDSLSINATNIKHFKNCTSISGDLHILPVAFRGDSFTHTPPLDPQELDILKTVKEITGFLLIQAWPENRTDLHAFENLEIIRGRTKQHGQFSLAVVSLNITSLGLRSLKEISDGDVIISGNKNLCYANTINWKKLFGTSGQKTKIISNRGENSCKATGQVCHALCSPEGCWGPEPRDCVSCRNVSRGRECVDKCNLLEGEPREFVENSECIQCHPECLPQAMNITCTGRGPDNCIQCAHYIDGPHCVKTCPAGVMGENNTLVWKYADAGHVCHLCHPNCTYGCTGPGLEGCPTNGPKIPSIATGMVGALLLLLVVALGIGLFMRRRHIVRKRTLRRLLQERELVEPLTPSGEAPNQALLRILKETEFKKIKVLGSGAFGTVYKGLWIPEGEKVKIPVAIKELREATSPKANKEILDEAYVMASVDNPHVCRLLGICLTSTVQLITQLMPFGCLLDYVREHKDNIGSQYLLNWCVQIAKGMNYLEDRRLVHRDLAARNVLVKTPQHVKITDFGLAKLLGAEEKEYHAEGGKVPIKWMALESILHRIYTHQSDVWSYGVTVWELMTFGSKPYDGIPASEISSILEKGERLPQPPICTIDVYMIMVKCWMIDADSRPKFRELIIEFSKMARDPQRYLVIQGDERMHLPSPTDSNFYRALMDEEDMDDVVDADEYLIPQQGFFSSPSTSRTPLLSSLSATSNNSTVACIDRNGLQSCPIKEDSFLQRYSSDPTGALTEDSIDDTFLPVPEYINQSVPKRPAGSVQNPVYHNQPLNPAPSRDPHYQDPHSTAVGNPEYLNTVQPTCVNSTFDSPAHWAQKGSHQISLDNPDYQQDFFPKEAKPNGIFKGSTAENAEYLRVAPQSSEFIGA
UniProt Q9UM73: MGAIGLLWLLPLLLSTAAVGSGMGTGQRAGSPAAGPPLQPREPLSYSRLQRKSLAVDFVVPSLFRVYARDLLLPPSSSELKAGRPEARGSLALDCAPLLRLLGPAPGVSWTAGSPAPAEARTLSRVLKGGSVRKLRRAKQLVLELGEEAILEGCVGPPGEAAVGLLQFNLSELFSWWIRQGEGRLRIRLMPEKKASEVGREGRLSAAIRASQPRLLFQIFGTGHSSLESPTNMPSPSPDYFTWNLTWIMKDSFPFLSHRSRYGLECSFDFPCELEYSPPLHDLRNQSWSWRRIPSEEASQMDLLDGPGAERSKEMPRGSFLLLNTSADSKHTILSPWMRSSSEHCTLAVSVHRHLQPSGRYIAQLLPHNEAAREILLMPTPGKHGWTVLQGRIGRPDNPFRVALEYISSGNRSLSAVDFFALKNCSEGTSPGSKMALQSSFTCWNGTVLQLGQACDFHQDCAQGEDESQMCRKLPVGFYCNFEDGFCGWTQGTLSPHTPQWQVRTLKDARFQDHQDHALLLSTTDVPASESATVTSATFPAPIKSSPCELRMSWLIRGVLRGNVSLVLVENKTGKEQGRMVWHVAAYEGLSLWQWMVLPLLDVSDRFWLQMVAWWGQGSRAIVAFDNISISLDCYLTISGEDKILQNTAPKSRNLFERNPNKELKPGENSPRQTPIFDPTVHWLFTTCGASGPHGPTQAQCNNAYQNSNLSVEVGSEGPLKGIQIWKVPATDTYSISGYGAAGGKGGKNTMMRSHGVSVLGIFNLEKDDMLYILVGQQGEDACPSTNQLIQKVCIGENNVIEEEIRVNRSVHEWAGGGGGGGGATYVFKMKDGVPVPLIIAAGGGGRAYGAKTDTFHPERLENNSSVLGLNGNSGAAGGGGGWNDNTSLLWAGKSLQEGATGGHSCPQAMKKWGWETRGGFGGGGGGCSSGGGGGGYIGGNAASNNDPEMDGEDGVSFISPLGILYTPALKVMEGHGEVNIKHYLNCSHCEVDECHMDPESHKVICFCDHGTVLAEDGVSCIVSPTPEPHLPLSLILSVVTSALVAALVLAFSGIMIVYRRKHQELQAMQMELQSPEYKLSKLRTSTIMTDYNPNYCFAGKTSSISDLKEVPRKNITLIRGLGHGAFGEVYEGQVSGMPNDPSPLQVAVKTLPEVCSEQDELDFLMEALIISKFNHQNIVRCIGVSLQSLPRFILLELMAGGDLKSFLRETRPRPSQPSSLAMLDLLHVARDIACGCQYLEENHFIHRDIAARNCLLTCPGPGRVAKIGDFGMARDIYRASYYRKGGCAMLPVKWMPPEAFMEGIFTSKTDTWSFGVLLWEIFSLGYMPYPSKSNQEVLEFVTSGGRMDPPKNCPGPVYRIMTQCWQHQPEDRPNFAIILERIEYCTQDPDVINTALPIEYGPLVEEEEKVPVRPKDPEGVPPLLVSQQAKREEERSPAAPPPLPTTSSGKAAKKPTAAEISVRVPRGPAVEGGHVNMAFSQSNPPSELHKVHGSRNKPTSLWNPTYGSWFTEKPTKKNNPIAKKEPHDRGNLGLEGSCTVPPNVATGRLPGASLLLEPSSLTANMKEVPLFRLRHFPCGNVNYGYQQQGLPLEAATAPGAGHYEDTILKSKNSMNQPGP

SMILES | IC50 [1] [nM] | IC50 [2] [nM]
C=CC(=O)Nc1cc(Nc2ncc(Cl)c(Nc3ccccc3C(=O)C(=O)N(C)C)n2)c(OC)cc1N1CCN(C)CC1 | 513 | 9.33
C=CC(=O)Nc1cc(Nc2ncc(Cl)c(Nc3ccccc3C(=O)C(=O)N(C)C)n2)ccc1OCCN(C)C | – | 8.62

Source: ChEMBL document CHEMBL5726454, “Protein tyrosine kinase modulators and methods of use” (2017)
